According to PubChem BioAssay (NCI):
Where “and” joins values, the source holds several entries; their conditions need not be identical. Identical values can stand only once. Only a part is listed here, and it is no random draw.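 48-hour exposure, single concentration, 96-well plates; percent growth endpoint where 0 means no net growth. Active: below 10.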 Calls of active or inactive are those of the source.

What follows are compounds tested on MALME-3M melanoma (assay: NCI-60 one-dose screen, 48 h (100 = growth as untreated, 0 = no growth, -100 = all killed)). Details: 10 µM.

SMILES | growth
CNc1ccccc1.O=[N+]([O-])c1cc([N+](=O)[O-])c(O)c([N+](=O)[O-])c1 | inactive: 116%
O=[N+]([O-])c1cc([N+](=O)[O-])c(O)c([N+](=O)[O-])c1.c1ccnnc1 | inactive: 99.6%
CCCOP(=S)(Cl)OCCC | inactive: 100%
CN(C)CCS | inactive: 114% and inactive: 88.3%
CCN(CC)CCS | inactive: 92.3%
CN(CCCl)CCCCCCCl | inactive: 95%
Cc1ccc(Nc2c([N+](=O)[O-])cc([N+](=O)[O-])cc2[N+](=O)[O-])cc1 | inactive: 89.3%
CN1CCN(CCOC(=O)C(O)(c2ccccc2)c2ccccc2)CC1 | inactive: 85.7%
NN/C(N)=N/[N+](=O)[O-] | inactive: 107%
CP(=S)(Cl)N(CCCl)CCCl (configuration not stated) | inactive: 109%
CC[N+](C)(CC)Cc1cc(Cc2ccccc2)ccc1OC(=O)N(C)C | inactive: 97.3%
Clc1ccccc1SCCBr | inactive: 96.6%
CP(=O)(OCCCCl)N(CCCl)CCCl (configuration not stated) | inactive: 101%
O=[N+]([O-])c1cccc([N+](=O)[O-])c1O | inactive: 125%
COC(=O)C(O)(c1ccccc1)c1ccccc1 | inactive: 98.4%

The compounds below were run on MDA-MB-231 breast in the same assay as above. Details: 10 µM.

SMILES | growth
NC(=NCCN/C(N)=N/[N+](=O)[O-])N[N+](=O)[O-] | inactive: 113%
O=[N+]([O-])N(CCN(CC(Br)([N+](=O)[O-])[N+](=O)[O-])[N+](=O)[O-])CC(Br)([N+](=O)[O-])[N+](=O)[O-] | inactive: 115%
CN(C)Nc1c([N+](=O)[O-])cc([N+](=O)[O-])cc1[N+](=O)[O-] | inactive: 114%
O=[N+]([O-])OCCOc1ccc([N+](=O)[O-])cc1[N+](=O)[O-] | inactive: 116%
N=C(N)N(N)[N+](=O)[O-] | inactive: 104%
CCOC(=O)CSc1c(N)c(C)nn1C.O=[N+]([O-])c1cc([N+](=O)[O-])c(O)c([N+](=O)[O-])c1 | inactive: 103%
O=[N+]([O-])c1ccc(OP2(=O)COCCO2)cc1 (configuration not stated) | inactive: 101%
CCN(C)CC.O=[N+]([O-])c1cc([N+](=O)[O-])c(O)c([N+](=O)[O-])c1 | inactive: 101%
OCCSCCO | inactive: 101%
CC(C)N1CCN(CCOC(=O)C(O)(c2ccccc2)c2ccccc2)CC1 | inactive: 105%
O=[N+]([O-])c1ccc(Oc2c([N+](=O)[O-])cc([N+](=O)[O-])cc2[N+](=O)[O-])cc1 | inactive: 116%
O=C(Cl)c1c([N+](=O)[O-])cc([N+](=O)[O-])cc1[N+](=O)[O-] | inactive: 73.1%
O=[N+]([O-])c1cc([N+](=O)[O-])c(Nc2ccc(Cl)cc2)c([N+](=O)[O-])c1 | inactive: 52.2%
CNc1ccccc1.O=[N+]([O-])c1cc([N+](=O)[O-])c(O)c([N+](=O)[O-])c1 | inactive: 96.8%
CCOP(=O)(CC)OCC | inactive: 101%
O=[N+]([O-])c1cc([N+](=O)[O-])c(O)c([N+](=O)[O-])c1.c1ccnnc1 | inactive: 105%
CCCOP(=S)(Cl)OCCC | inactive: 103%
CN(C)CCS | inactive: 105% and inactive: 112%
CCN(CC)CCS | inactive: 112%
CN(CCCl)CCCCCCCl | inactive: 109%
Cc1ccc(Nc2c([N+](=O)[O-])cc([N+](=O)[O-])cc2[N+](=O)[O-])cc1 | inactive: 74.3%
CN1CCN(CCOC(=O)C(O)(c2ccccc2)c2ccccc2)CC1 | inactive: 94.7%
NN/C(N)=N/[N+](=O)[O-] | inactive: 107%
CP(=S)(Cl)N(CCCl)CCCl (configuration not stated) | inactive: 103%
CC[N+](C)(CC)Cc1cc(Cc2ccccc2)ccc1OC(=O)N(C)C | inactive: 102%
CP(=O)(OCCCCl)N(CCCl)CCCl (configuration not stated) | inactive: 111%
O=[N+]([O-])c1cccc([N+](=O)[O-])c1O | inactive: 103%
COC(=O)C(O)(c1ccccc1)c1ccccc1 | inactive: 108%
Cc1c([N+](=O)[O-])c(C)c([N+](=O)[O-])c(Nc2c([N+](=O)[O-])c(C)c([N+](=O)[O-])c(C)c2[N+](=O)[O-])c1[N+](=O)[O-] | active: -37.1%

The compounds below were run on RXF 393 renal in the same assay as above. Details: 10 µM.

SMILES | growth
O=[N+]([O-])N(CCN(CC(Br)([N+](=O)[O-])[N+](=O)[O-])[N+](=O)[O-])CC(Br)([N+](=O)[O-])[N+](=O)[O-] | inactive: 115%
CN(C)Nc1c([N+](=O)[O-])cc([N+](=O)[O-])cc1[N+](=O)[O-] | inactive: 108%
O=[N+]([O-])OCCOc1ccc([N+](=O)[O-])cc1[N+](=O)[O-] | inactive: 103%
N=C(N)N(N)[N+](=O)[O-] | inactive: 121%
O=[N+]([O-])c1cc([N+](=O)[O-])c(C(F)(F)F)c([N+](=O)[O-])c1O | inactive: 98.2%
O=[N+]([O-])c1ccc(OP2(=O)COCCO2)cc1 (configuration not stated) | inactive: 431%
CCN(C)CC.O=[N+]([O-])c1cc([N+](=O)[O-])c(O)c([N+](=O)[O-])c1 | inactive: 119%
OCCSCCO | inactive: 121%
CC(C)N1CCN(CCOC(=O)C(O)(c2ccccc2)c2ccccc2)CC1 | inactive: 117%
O=[N+]([O-])c1ccc(Oc2c([N+](=O)[O-])cc([N+](=O)[O-])cc2[N+](=O)[O-])cc1 | inactive: 105%
O=C(Cl)c1c([N+](=O)[O-])cc([N+](=O)[O-])cc1[N+](=O)[O-] | inactive: 69.5%
O=[N+]([O-])c1cc([N+](=O)[O-])c(Nc2ccc(Cl)cc2)c([N+](=O)[O-])c1 | inactive: 47.2%
CNc1ccccc1.O=[N+]([O-])c1cc([N+](=O)[O-])c(O)c([N+](=O)[O-])c1 | inactive: 109%
CCOP(=O)(CC)OCC | inactive: 99.6%
O=[N+]([O-])c1cc([N+](=O)[O-])c(O)c([N+](=O)[O-])c1.c1ccnnc1 | inactive: 105%
CCCOP(=S)(Cl)OCCC | inactive: 110%
CN(C)CCS | inactive: 100% and inactive: 101%
CCN(CC)CCS | inactive: 105%
CN(CCCl)CCCCCCCl | inactive: 106%
Cc1ccc(Nc2c([N+](=O)[O-])cc([N+](=O)[O-])cc2[N+](=O)[O-])cc1 | inactive: 90.3%
CN1CCN(CCOC(=O)C(O)(c2ccccc2)c2ccccc2)CC1 | inactive: 96.2%
NN/C(N)=N/[N+](=O)[O-] | inactive: 109%
CP(=S)(Cl)N(CCCl)CCCl (configuration not stated) | inactive: 99.6%
Clc1ccccc1SCCBr | inactive: 106%
CP(=O)(OCCCCl)N(CCCl)CCCl (configuration not stated) | inactive: 114%
O=[N+]([O-])c1cccc([N+](=O)[O-])c1O | inactive: 113%
COC(=O)C(O)(c1ccccc1)c1ccccc1 | inactive: 99.9%
Cc1c([N+](=O)[O-])c(C)c([N+](=O)[O-])c(Nc2c([N+](=O)[O-])c(C)c([N+](=O)[O-])c(C)c2[N+](=O)[O-])c1[N+](=O)[O-] | inactive: 17.3%
